Test results as given in patent US20260115185A1, “QUINOLINE DERIVATIVES WHICH ACT AS KAPPA-OPIOID RECEPTOR ANTAGONISTS” (The Scripps Research Institute, priority 2023, published 2026).

Protein sequences, listed by entry. Tags and fused reporters are not part of them.
UniProt P41145, whole entry: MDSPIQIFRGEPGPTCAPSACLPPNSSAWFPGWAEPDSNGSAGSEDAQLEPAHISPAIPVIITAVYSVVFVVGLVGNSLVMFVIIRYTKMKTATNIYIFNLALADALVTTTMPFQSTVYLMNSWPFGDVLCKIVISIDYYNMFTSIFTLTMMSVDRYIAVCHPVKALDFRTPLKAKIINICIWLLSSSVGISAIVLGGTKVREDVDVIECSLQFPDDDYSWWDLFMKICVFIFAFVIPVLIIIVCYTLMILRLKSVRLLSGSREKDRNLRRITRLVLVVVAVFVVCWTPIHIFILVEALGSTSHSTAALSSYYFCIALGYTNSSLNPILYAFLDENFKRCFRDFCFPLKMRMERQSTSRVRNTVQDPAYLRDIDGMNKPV
UniProt P35372, whole entry: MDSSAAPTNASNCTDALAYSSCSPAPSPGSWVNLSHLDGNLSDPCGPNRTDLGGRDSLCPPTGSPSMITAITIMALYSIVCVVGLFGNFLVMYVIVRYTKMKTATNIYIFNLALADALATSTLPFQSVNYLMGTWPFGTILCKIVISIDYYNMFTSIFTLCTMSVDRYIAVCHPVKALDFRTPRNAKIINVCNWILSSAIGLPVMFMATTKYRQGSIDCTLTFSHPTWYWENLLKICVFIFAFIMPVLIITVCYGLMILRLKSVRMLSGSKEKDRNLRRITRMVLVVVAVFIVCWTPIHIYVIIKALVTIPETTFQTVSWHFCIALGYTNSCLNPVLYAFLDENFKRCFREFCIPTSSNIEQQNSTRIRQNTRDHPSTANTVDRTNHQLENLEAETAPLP

Experiments:
[1] = molecular target: kappa opioid receptor (KOR) (Homo sapiens, UniProt P41145); test: OPRKappa 1 Tango B-Arrestin Assay, antagonist mode (Tango OPRK1-bla U2OS cells, U50488 EC80 challenge); type: cell-based
mu opioid receptor (MOR) = mu opioid receptor (MOR) (Homo sapiens, UniProt P35372); test: OPRMu1 Discover X β-arrestin Assay, antagonist mode (U2OS cells, DAMGO EC80 challenge); type: cell-based; conditions: read-out: MOR IC50

## CCc1cc(-c2ccn(C)n2)c2nc(N3CCC(N[C@H]4CCOC[C@@H]4F)CC3)c(-c3ccn(C)n3)c(C)c2c1
[1]; Kappa selectivity, MOR IC50 / KOR IC50
  Selectivity (MOR/KOR): +++ (between 100- to 1000-fold selective)
[1]; read-out: KOR IC50, antagonist mode, Tango OPRK1-bla U2OS cells, 6 nM U50488 challenge
  IC50: 1 to 10 nM
Mu opioid receptor (MOR)
  IC50: > 1000 nM
